## Permeability data for macrocyclic peptides

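Conditions beyond the assay type are not listed; see the original paper. Other peptides of the study may be missing here. Entries at the database's floor value (log10 P of -10) are not listed.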

PAMPA is the parallel artificial membrane permeability assay, which has no cells and reads passive diffusion. Values are log10 P with P in cm/s, so -5 is more permeable than -7.

| structure (SMILES) | PAMPA (log10 cm/s) |
|---|---|
| CC(C)C[C@@H]1C(=O)N[C@@H](Cc2ccccc2)CC(=O)N2CCC[C@H]2C(=O)N[C@H](CC(C)C)C(=O)N[C@@H](Cc2ccccc2)C(=O)N2CCC[C@@H]2C(=O)N(C)[C@@H](C)C(=O)N1C | -5.91 |
| CC(C)C[C@@H]1NC(=O)[C@H](CC(C)C)N(C)C(=O)[C@H](C)N(C)C(=O)[C@H]2CCCN2C(=O)[C@H](Cc2ccccc2)NC(=O)[C@@H](CC(C)C)NC(=O)[C@H]2CCCN2C1=O | -5.43 |
| CC(C)C[C@@H]1NC(=O)[C@@H](C)N(C)C(=O)[C@@H]2CCCN2C(=O)[C@H](Cc2ccccc2)NC(=O)CN(Cc2ccccc2)C(=O)[C@H]2CCCN2C(=O)[C@H](CC(C)C)N(C)C1=O | -5.73 |
| CC(C)C[C@@H]1NC(=O)[C@H](C)NC(=O)[C@H]2CCCN2C(=O)[C@H](Cc2ccccc2)NC(=O)[C@H](CC(C)C)N(C)C(=O)[C@H]2CCCN2C(=O)C[C@H](Cc2ccccc2)NC1=O | -5.95 |
| CC(C)C[C@H]1NC(=O)[C@@H](C)NC(=O)[C@H](Cc2ccccc2)NC(=O)[C@H](CC(C)C)N(C)C(=O)[C@H]2CCCN2C(=O)[C@@H](CC(C)C)NC1=O | -6.99 |
| CCCN1CC(=O)N[C@@H](CC(C)C)C(=O)N[C@@H](CC(C)C)C(=O)N2CCC[C@H]2C(=O)N(C)[C@@H](CC(C)C)C(=O)N[C@@H](Cc2ccccc2)C1=O | -5.03 |
| CC(C)C[C@@H]1NC(=O)[C@H](C)N(C)C(=O)[C@H](Cc2ccccc2)NC(=O)[C@H](CC(C)C)N(C)C(=O)[C@@H]2CCCN2C(=O)[C@@H](CC(C)C)NC1=O | -5.00 |
| CC(C)C[C@@H]1C(=O)N2CCC[C@H]2C(=O)N(C)[C@H](CC(C)C)C(=O)N[C@@H](Cc2ccccc2)C(=O)N2CCC[C@@H]2C(=O)N[C@H](C)C(=O)N[C@H](CC(C)C)C(=O)N1C | -6.11 |
| CC(C)C[C@@H]1NC(=O)[C@H](C)NC(=O)[C@H]2CCCN2C(=O)[C@H](Cc2ccccc2)NC(=O)[C@H](CC(C)C)N(C)C(=O)[C@@H]2CCCN2C(=O)C[C@H](Cc2ccccc2)NC1=O | -5.82 |
| CC(C)C[C@@H]1NC(=O)[C@@H]2CCCN2C(=O)[C@@H](CC(C)C)N(C)C(=O)[C@@H](CC(C)C)NC(=O)[C@@H](C)N(C)C(=O)[C@H]2CCCN2C(=O)[C@H](Cc2ccccc2)NC1=O | -6.25 |
| CC(C)C[C@@H]1C(=O)N[C@@H](Cc2ccccc2)CC(=O)N2CCC[C@H]2C(=O)N[C@H](CC(C)C)C(=O)N[C@@H](Cc2ccccc2)C(=O)N[C@H](C)C(=O)N1C | -5.87 |
| CC(C)C[C@@H]1C(=O)N[C@@H](Cc2ccccc2)C(=O)N2CCC[C@H]2C(=O)N[C@@H](Cc2ccccc2)CC(=O)N[C@H](CC(C)C)C(=O)N(Cc2ccccc2)CC(=O)N2CCC[C@@H]2C(=O)N1C | -6.84 |
| CC(C)C[C@@H]1NC(=O)[C@H]2CCCN2C(=O)[C@@H](CC(C)C)N(C)C(=O)[C@H](CC(C)C)NC(=O)[C@@H](C)NC(=O)[C@H](Cc2ccccc2)NC1=O | -6.15 |
| CC(C)C[C@H]1NC(=O)[C@H](CC(C)C)N(C)C(=O)C[C@H](Cc2ccccc2)NC(=O)[C@H](Cc2ccccc2)NC(=O)CN(Cc2ccccc2)C(=O)[C@H]2CCCN2C1=O | -6.19 |
| CC(C)C[C@@H]1NC(=O)[C@H]2CCCN2C(=O)[C@H](CC(C)C)NC(=O)[C@@H](CC(C)C)NC(=O)C[C@H](Cc2ccccc2)NC(=O)[C@H]2CCCN2C(=O)[C@H](Cc2ccccc2)NC1=O | -5.77 |
| CC(C)C[C@@H]1C(=O)N2CCC[C@@H]2C(=O)N(C)[C@H](CC(C)C)C(=O)N[C@@H](Cc2ccccc2)C(=O)N2CCC[C@H]2C(=O)N(C)[C@H](C)C(=O)N(Cc2ccccc2)CC(=O)N1C | -5.56 |
| CC(C)C[C@@H]1NC(=O)[C@H](C)NC(=O)[C@@H]2CCCN2C(=O)[C@H](Cc2ccccc2)NC(=O)CN(Cc2ccccc2)C(=O)[C@@H]2CCCN2C(=O)[C@@H](CC(C)C)N(C)C1=O | -5.95 |
| CC(C)C[C@@H]1NC(=O)[C@H](CC(C)C)N(C)C(=O)[C@@H](C)N(C)C(=O)[C@H]2CCCN2C(=O)[C@H](Cc2ccccc2)NC(=O)[C@H](CC(C)C)N(C)C(=O)[C@H]2CCCN2C1=O | -5.10 |
| CC(C)C[C@@H]1NC(=O)[C@@H](C)N(C)C(=O)[C@H]2CCCN2C(=O)[C@H](Cc2ccccc2)NC(=O)[C@H](CC(C)C)N(C)C(=O)[C@H]2CCCN2C(=O)CN(Cc2ccccc2)C1=O | -6.25 |

Data: CycPeptMPDB; original report Townsend et al. 2020, doi:10.26434/chemrxiv.13335941.v1.